Common to all, as to experiment: In vitro cytotoxicity, CellTiter-Glo Luminescent Cell Viability Assay
Common to all, as to format: cell-based

One assay has as its system SK-BR-3 (Her2^+ cells). The settings on record: SK-BR-3, Her2 level 602,083, 5 days. The procedure:
(§1) On the day of assay the culture media was replaced with media containing serially diluted charged or uncharged anti-Her2 antibody drug conjugate (ADC) ranging from 0.01 nM to 100 nM. There were 3 replicates at each concentration.
(§2) One of the anti-Her2+10 antibody variants described in Examples 12 and 20 was used in this Example for comparison with anti-Her2-wt antibody. Both were conjugated to DM1 as described in Example 17. The in vitro cytotoxicity of anti-Her2 ADCs was determined as described in Example 20.

For a further assay, the system named is JIMT-1 cells. The note with it: JIMT-1, Her2 level 188,354, 5 days. The procedure: as §1, §2
A further assay concerns MDA-MB-453 cells. The settings on record: MDA-MB-453, Her2 level 255,217, 5 days. The procedure:
as §1, §2

A further assay has as its system MCF-7 (Her2^− cells). The settings on record: MCF-7, Her2 level 39,016, 5 days. The procedure:
as §1, §2

Our source for the IC50 values is patent publication US20160031985A1, “CHARGE-ENGINEERED ANTIBODIES OR COMPOSITIONS OF PENETRATION-ENHANCED TARGETING PROTEINS AND METHODS OF USE” (PERMEON BIOLOGICS, INC., priority 2013, published 2016).

The term IC50 denotes the concentration at which inhibition is half-maximal. A higher IC50 goes with lower potency.

As for “Anti-Her2-wt-MCC-DM1: un-modified wild-type/parent anti-Her2 antibody conjugated to MCC-DM1 (T-DM1)”, the half-maximal inhibitory concentration (IC50) was 0.22 nM in the assay with SK-BR-3 (Her2^+ cells), 8.2 nM in the assay on JIMT-1 cells, 0.78 nM in the assay on MDA-MB-453 cells and 91.5 nM in the assay with MCF-7 (Her2^− cells).
